The chains behind the UniProt entries cited, without tags or fusion partners.
UniProt P42866, whole entry: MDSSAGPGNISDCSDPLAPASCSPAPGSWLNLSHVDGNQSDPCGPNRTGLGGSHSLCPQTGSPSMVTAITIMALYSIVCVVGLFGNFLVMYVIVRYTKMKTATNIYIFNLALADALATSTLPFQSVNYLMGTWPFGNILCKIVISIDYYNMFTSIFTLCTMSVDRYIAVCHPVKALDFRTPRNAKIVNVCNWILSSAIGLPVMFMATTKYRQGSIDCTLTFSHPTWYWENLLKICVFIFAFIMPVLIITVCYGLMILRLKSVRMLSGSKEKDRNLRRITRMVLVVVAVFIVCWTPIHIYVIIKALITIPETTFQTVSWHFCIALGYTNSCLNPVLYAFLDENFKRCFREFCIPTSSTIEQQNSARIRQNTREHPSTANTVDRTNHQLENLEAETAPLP

In patent US10556889B1, “Salvinorin derivatives” (Blue Sky Pharmaceuticals, LLC, priority 2018, dated 2020):

Tests used:
uOR [1] = molecular target: T1, uOR (Mus musculus, UniProt P42866); test: β-arrestin recruitment to uOR / receptor internalization; format: cell-based; parameters: expressed in transfected cells; conditions: read-out: β-arrestin Recruitment EC50 ± SEM
Source text: The data provided in Tables 1A and 1B below were obtained using standard analytical techniques known to those skilled in the art. Such techniques are described in detail in C.
[…] were transiently transfected (electroporation) with combinations of cDNA for hemagglutinin (HA-N terminus)-tagged uOR, beta-arrestin2 tagged with green fluorescent protein, mouse uOR tagged at the C terminus with yellow fluorescent protein and GRK-2. […] After addition of drug, cells were visualized using confocal microscopy. Multiple cells were recorded per dish after more than four separate transfection experiments—representative cells are shown in the manuscript.
The “β-arrestin Recruitment EC50±SEM” column in Table 2 below represents the degree to which each tested compound recruited beta-arrestin to interact with uOR. As will be appreciated by those skilled in the art, EC50 refers to the concentration of a drug which induces a response halfway between the baseline and maximum after a specified exposure time. In this instance, lower values indicate greater potency of the molecule, and this is […].
As will also be understood by those skilled in the art, “Max Fold Efficacy” refers to the maximum signal/background ratio that an agonist will induce or, conversely, that an antagonist will inhibit an agonist from inducing a response. […]

uOR [2] = molecular target: T1, uOR; test: Agonist induced ERK 1/2 phosphorylation (efficacy and potency relative to DAMGO); conditions: read-out: Potency; amount required to produce the effect obtained with […] DAMGO or […] morphine; HEK-293 cells containing uOR

## Met-Enkephalin [reference compound]
uOR [1]
  EC50: 441 ± 38.8 nM
uOR [2]
  EC50: 0.674 nM
